Tests used:
mu (μ) opioid receptor = mu (μ) opioid receptor (Homo sapiens, UniProt P35372); conditions: read-out: Opioid Receptor IC50 Mu; 1D4 cell line membrane, Damgo-H3 ligand
[1] = target: human nociceptin receptor (ORL-1) (Homo sapiens, UniProt P41146); test: Nociceptin receptor binding assay (125I-Tyr14-nociceptin, HEK293 cell membranes); conditions: read-out: ORL-1 IC50, inhibition of 0.5 nM 125I-Tyr14-nociceptin binding
[2] = target: kappa (κ) opioid receptor (Homo sapiens, UniProt P41145); conditions: read-out: Opioid Receptor IC50 Kappa; 2C2 cell line membrane, U69593-H3 ligand
[3] = target: delta (δ) opioid receptor (Homo sapiens, UniProt P41143); conditions: read-out: Opioid Receptor IC50 Delta; 2D4 cell line membrane, DPDPE-H3 ligand
ORL-1 receptor = ORL-1 receptor (Homo sapiens, UniProt P41146); test: ORL-1 calcium flux functional assay (HEK-293 cells overexpressing ORL-1 and Gqi5, FLIPR384); format: cell-based; conditions: read-out: ORL-1 Functional Agonist EC50; initial calcium signal after addition of test compound, HEK-293 ORL-1/Gqi5 cells

Amino acid sequences for entries named in this document (tags omitted). A change or cut given only in a name is not applied to a line headed by its entry.
UniProt P35372, whole entry, looked up: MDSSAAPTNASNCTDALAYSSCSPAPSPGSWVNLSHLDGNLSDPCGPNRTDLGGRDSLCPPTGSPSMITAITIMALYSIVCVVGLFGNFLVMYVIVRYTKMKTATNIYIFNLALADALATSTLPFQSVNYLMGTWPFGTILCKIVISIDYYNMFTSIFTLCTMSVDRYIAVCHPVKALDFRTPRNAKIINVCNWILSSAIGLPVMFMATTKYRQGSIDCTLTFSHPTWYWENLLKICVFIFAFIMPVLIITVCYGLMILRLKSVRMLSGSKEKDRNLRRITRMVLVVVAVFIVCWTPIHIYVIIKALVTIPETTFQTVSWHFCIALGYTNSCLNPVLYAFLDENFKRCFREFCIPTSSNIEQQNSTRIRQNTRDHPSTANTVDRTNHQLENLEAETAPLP
UniProt P41146: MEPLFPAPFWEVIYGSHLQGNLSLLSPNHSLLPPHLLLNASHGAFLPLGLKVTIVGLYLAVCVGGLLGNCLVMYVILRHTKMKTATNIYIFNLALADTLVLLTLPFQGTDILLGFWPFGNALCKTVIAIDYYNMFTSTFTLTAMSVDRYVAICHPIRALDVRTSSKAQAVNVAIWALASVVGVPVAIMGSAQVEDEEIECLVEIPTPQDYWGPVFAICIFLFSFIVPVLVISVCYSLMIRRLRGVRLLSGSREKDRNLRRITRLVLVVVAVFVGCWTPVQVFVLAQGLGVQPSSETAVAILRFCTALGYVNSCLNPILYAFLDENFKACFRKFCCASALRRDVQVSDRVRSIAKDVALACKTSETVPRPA
UniProt P41145: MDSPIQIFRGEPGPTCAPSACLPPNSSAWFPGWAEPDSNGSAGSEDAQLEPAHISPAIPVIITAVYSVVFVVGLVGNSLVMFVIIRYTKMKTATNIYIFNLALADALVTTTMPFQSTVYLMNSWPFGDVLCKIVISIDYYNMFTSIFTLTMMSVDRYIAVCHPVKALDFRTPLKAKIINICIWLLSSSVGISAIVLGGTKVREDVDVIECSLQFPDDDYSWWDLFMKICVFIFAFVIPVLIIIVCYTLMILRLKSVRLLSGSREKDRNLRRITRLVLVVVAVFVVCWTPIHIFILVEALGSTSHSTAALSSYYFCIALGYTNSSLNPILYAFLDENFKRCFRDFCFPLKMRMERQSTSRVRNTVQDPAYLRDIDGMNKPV

Molecule: Fc1ccc2c(c1)c(C1CCN(CC3CCCCCCC3)CC1)cn2C[C@H]1CO1
- IC50 (mu (μ) opioid receptor): 671 nM
- IC50 [1]: 211 nM

Molecule: (1S)-3-(1-acenaphthen-1-yl-1,2,3,6-tetrahydro-pyridin-4-yl)-5-isocyano-1-oxiranylmethyl-1H-indole
- IC50 (mu (μ) opioid receptor): 1140 nM

Molecule: (1R)-1-[3-(1-acenaphthen-1-yl-1,2,3,6-tetrahydro-pyridin-4-yl)-5-isocyano-indol-1-yl]-3-amino-propan-2-ol
- IC50 (mu (μ) opioid receptor): 4140 nM
- IC50 [1]: 1650 nM

Molecule: c1ccc2c(CN3CCC(c4c[nH]c5ncccc45)CC3)cccc2c1 [Cpd 33, 3-(1-naphthalen-1-ylmethyl-piperidin-4-yl)-1H-pyrrolo[2,3-b]pyridine]
- IC50 [2]: 711 nM

Molecule: Cc1[nH]c2ccc(Cl)cc2c1C1CCN(Cc2cccc3cccc(C)c23)CC1
- IC50 [2]: 1570 nM

Molecule: Clc1ccc2[nH]cc(C3CCN(Cc4ccccc4)CC3)c2c1
- IC50 (mu (μ) opioid receptor): 237 nM
- IC50 [2]: 329 nM
- IC50 [1]: 1140 nM

Molecule: Cc1cccc2cccc(CN3CCC(c4cn(C[C@H]5CO5)c5ccc(F)cc45)CC3)c12
- IC50 [1]: 138 nM

Molecule: Cc1cccc2cccc(CN3CCC(c4c[nH]c5ccc(F)cc45)CC3)c12
- IC50 (mu (μ) opioid receptor): 4710 nM
- IC50 [1]: 1780 nM

Molecule: OC1CN(C2Cc3cccc4cccc2c34)CCC1c1c[nH]c2ncccc12 (mixture of isomers) [Cpd 40, 1-acenaphthen-1-yl-4-(1 H-pyrrolo[2,3-b]pyridin-3-yl)-piperidin-3-ol]
- IC50 (mu (μ) opioid receptor): 169 nM
- IC50 [1]: 2.5 nM

Molecule: Fc1ccc2[nH]cc(C3CCN(C4Cc5cccc6cccc4c56)CC3)c2c1 (stereo not drawn)
- IC50 (mu (μ) opioid receptor): 507 nM
- IC50 [2]: 1890 nM

Molecule: c1cc2c3c(cccc3c1)C(N1CCC(c3cn(CCOC4CCCCO4)c4ncccc34)CC1)C2 (stereo not drawn)
- IC50 (mu (μ) opioid receptor): 1020 nM
- IC50 [1]: 551 nM

Molecule: Cc1[nH]c2ccc(Cl)cc2c1C1CCN(C2Cc3cccc4cccc2c34)CC1 (stereo not drawn)
- IC50 [3]: 2.75 µM
- IC50 (mu (μ) opioid receptor): 261 nM
- IC50 [2]: 687 nM
- IC50 [1]: 10.7 nM
- EC50 (ORL-1 receptor): 54.6 µM

Molecule: CN(C)C[C@@H](O)Cn1cc(C2CCN(CC3CCCCCCC3)CC2)c2cc(F)ccc21
- IC50 (mu (μ) opioid receptor): 2700 nM
- IC50 [2]: 1890 nM
- IC50 [1]: 971 nM

Molecule: c1cc2c3c(cccc3c1)C(N1CCC(c3cn(C4Cc5cccc6cccc4c56)c4ncccc34)CC1)C2 (stereo not drawn) [Cpd 35, 1-acenaphthen-1-yl-3-(1-acenaphthen-1-yl-piperidin-4-yl)-1H-pyrrolo[2,3-b]pyridine]
- IC50 (mu (μ) opioid receptor): 1200 nM
- IC50 [1]: 81.3 nM

Molecule: Fc1ccc2[nH]cc(C3CCN(CC4CCCCCCC4)CC3)c2c1
- IC50 (mu (μ) opioid receptor): 1080 nM
- IC50 [2]: 182 nM
- IC50 [1]: 291 nM

Molecule: (1R)-1-[3-(1-acenaphthen-1-yl-1,2,3,6-tetrahydro-pyridin-4-yl)-5-isocyano-indol-1-yl]-3-dimethylamino-propan-2-ol
- IC50 (mu (μ) opioid receptor): 4140 nM

Molecule: Clc1cccc2c(C3CCN(CC4CCCCCCC4)CC3)c[nH]c12
- IC50 (mu (μ) opioid receptor): 436 nM
- IC50 [2]: 1170 nM
- IC50 [1]: 659 nM

Molecule: Fc1ccc2[nH]cc(C3CCN(Cc4cccc5ccccc45)CC3)c2c1
- IC50 (mu (μ) opioid receptor): 502 nM
- IC50 [2]: 820 nM
- IC50 [1]: 806 nM

Molecule: c1cc2c3c(cccc3c1)C(N1CCC(c3c[nH]c4ncccc34)CC1)C2 (stereo not drawn)
- IC50 (mu (μ) opioid receptor): 390 nM
- IC50 [2]: 2780 nM
- IC50 [1]: 4.3 nM
- EC50 (ORL-1 receptor): 4.2 µM

Molecule: Fc1ccc2c(C3=CCN(C4Cc5cccc6cccc4c56)CC3)c[nH]c2c1 (stereo not drawn)
- IC50 [1]: 164 nM

Molecule: Cn1cc(C2CCN(C3Cc4cccc5cccc3c45)CC2)c2cccnc21 (stereo not drawn)
- IC50 (mu (μ) opioid receptor): 905 nM
- IC50 [1]: 81.7 nM

Molecule: Clc1cccc2c(C3CCN(C4Cc5cccc6cccc4c56)CC3)c[nH]c12 (stereo not drawn)
- IC50 (mu (μ) opioid receptor): 264 nM
- IC50 [2]: 2600 nM
- IC50 [1]: 57.4 nM
- EC50 (ORL-1 receptor): 100 µM

Molecule: Clc1cccc2c(C3CCNCC3)c[nH]c12
- IC50 (mu (μ) opioid receptor): 256 nM

Molecule: c1cnc2[nH]cc(C3CCN(CC4CCCCCCC4)CC3)c2c1
- IC50 (mu (μ) opioid receptor): 2000 nM
- IC50 [2]: 3890 nM
- IC50 [1]: 557 nM

Molecule: Clc1cccc2c(C3CCN(Cc4cccc5ccccc45)CC3)c[nH]c12
- IC50 (mu (μ) opioid receptor): 443 nM
- IC50 [2]: 4080 nM

Molecule: CCn1cc(C2=CCN(C3Cc4cccc5cccc3c45)CC2)c2ccc(F)cc21 (stereo not drawn)
- IC50 (mu (μ) opioid receptor): 2610 nM

Molecule: (1R)-1-[3-(1-acenaphthen-1-yl-1,2,3,6-tetrahydro-pyridin-4-yl)-5-isocyano-indol-1-yl]-3-methylamino-propan-2-ol
- IC50 (mu (μ) opioid receptor): 2570 nM
- IC50 [1]: 1820 nM

Molecule: Cc1cccc2cccc(CN3CCC(c4c[nH]c5ncccc45)CC3)c12
- IC50 [1]: 1960 nM

Molecule: CN(C)C[C@@H](O)Cn1cc(C2CCN(C3Cc4cccc5cccc3c45)CC2)c2ccc(F)cc21 (stereo partly drawn)
- IC50 (mu (μ) opioid receptor): 473 nM
- IC50 [1]: 101 nM

Molecule: Fc1ccc2c(C3CCN(C4Cc5cccc6cccc4c56)CC3)c[nH]c2c1 (stereo not drawn)
- IC50 (mu (μ) opioid receptor): 903 nM
- IC50 [1]: 52.9 nM

Molecule: CNCC(O)Cn1cc(C2CCN([C@@H]3Cc4cccc5cccc3c45)CC2)c2ccc(F)cc21 (stereo partly drawn)
- IC50 (mu (μ) opioid receptor): 805 nM
- IC50 [1]: 103 nM

Molecule: Cc1[nH]c2ccc(Cl)cc2c1C1CCN(Cc2cccc3ccccc23)CC1
- IC50 (mu (μ) opioid receptor): 888 nM
- IC50 [2]: 755 nM

Molecule: Clc1ccc2[nH]cc(C3=CCN(Cc4ccccc4)CC3)c2c1
- IC50 (mu (μ) opioid receptor): 507 nM
- IC50 [2]: 1010 nM

Molecule: Cc1[nH]c2ccc(Cl)cc2c1C1CCN(CC2CCCCCCC2)CC1
- IC50 [3]: 4.18 µM
- IC50 (mu (μ) opioid receptor): 1360 nM
- IC50 [2]: 332 nM
- IC50 [1]: 712 nM

Molecule: NCC(O)Cn1cc(C2CCN([C@@H]3Cc4cccc5cccc3c45)CC2)c2ccc(F)cc21 (stereo partly drawn)
- IC50 (mu (μ) opioid receptor): 765 nM
- IC50 [1]: 62.6 nM

Molecule: OCCn1cc(C2CCN(C3Cc4cccc5cccc3c45)CC2)c2cccnc21 (stereo not drawn)
- IC50 (mu (μ) opioid receptor): 530 nM
- IC50 [1]: 94.5 nM

Source: US20080015214A1 (priority 2005, published 2008)
